The source of these data is US5641751A, “Tumor necrosis factor inhibitors” (Centocor, Inc., priority 1995, dated 1997).

By UniProt entry, the sequences of proteins in these tests, tags left out. Residues count along the entry.
UniProt P01375, 77-233 limits assumed: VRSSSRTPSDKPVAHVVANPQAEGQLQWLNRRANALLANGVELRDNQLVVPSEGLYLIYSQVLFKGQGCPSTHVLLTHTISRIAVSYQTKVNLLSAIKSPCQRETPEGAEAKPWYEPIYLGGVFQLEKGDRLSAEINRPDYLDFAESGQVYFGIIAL

For the experiment, the target named is T1, human TNFα (Homo sapiens, UniProt P01375).
T1 construct: purchased Biosource, Camarillo, Calif
Put plainly: p55 Receptor/IgG fusion protein binding assay (inhibition of TNFα capture by p55-Ig coated plate). The settings on record: positive control, final cA2 Fab concentration 500 ng/ml; typical value. The method, then:
In order to screen compounds for their ability to block TNFα binding to the TNF p55 receptor, an assay has been designed using TNFα and a p55/IgG fusion protein in place of monovalent, non-fusion p55 TNF receptor protein. This assay was designed to identify peptides which bind to human TNFα and thereby prevent the capture of the TNFα by a microtiter plate coated with p55-Ig fusion protein. A constant concentration of human TNFα is preincubated with the test peptide and then incubated on the p55-Ig coated microtiter wells. Bound TNFα is detected using a specific antisera and an alkaline phosphatase-conjugated probe. An active peptide will reduce the amount of human TNFα bound to the well relative to control wells in which TNFα but no peptide was added. […]
To detect TNFα captured by the p55-Ig plate, all wells were incubated in succession with polyclonal rabbit anti-human TNFα (Genzyme, Boston, Mass.; 1:500 in assay buffer, 50 μl/well), biotinylated goat anti-rabbit Ig (H&L) (Vector Laboratories, Burlingame, Calif.; 1 μg/ml in assay buffer, 50 μl/well) and streptavidin-alkaline phosphatase conjugate (Pierce, Rockford, Ill.; 1 μg/ml in assay buffer, 50 μl/well). […] The optical density (OD) at 405 nm was measured on a microtiter plate reader (Molecular Devices Vmax plate reader), with the plate blank wells subtracted as background. […]

In the case of “cA2 Fab: Fab fragment of the mouse/human monoclonal anti-human TNFα antibody cA2 (positive control) [reference compound]”, the “percent inhibition of TNFα capture by the p55-Ig plate” value was at least 75%.
